Earlier results in patent US8912167B2, “Heparin-based compositions and methods for the inhibition of metastasis” (priority 2011, dated 2014).

Conditions: clinical study for the reversal of heparin anticoagulation therapy, at the doses used

Question: For “tetra-[5-(L)-lysyl-amino-O-methylsalicylamide]”, which “effect on blood pressure” value is on record?
Answer: undesirable decrease in blood pressure
